In ChEMBL document CHEMBL1140788, “Development of CXCR3 antagonists. Part 3: Tropenyl and homotropenyl-piperidine urea derivatives” (Bioorg Med Chem Lett, 2008):

Species on record: Homo sapiens
Test: Protein binding to human plasma
Conditions: read-out: PPB (converted)

| fraction unbound | SMILES |
| --- | --- |
| 0.03 | O=C(Nc1cc(C(F)(F)F)cc(C(F)(F)F)c1)NC1CCN(CCC2CCS(=O)(=O)C2)CC1 (stereo not drawn) |
| 0.05 | CC(=O)N1CCC(CN2CCC(NC(=O)Nc3cc(C(F)(F)F)cc(C(F)(F)F)c3)CC2)CC1 |

| SMILES | fraction unbound |
| --- | --- |
| CC(=O)N1C2C=C(CN3C4CCC3CC(NC(=O)Nc3cc(F)cc(C(F)(F)F)c3)C4)CC1CCC2 (stereo not drawn) | 0.07 |
